Results as given in US5604198A, “Method to enhance permeability of the blood/brain blood/nerve barriers to therapeutic agents” (priority 1994, dated 1997).

Details: rat

## albumin [reference compound]
In vivo
  Residual endoneurial plasma volume (Vp) of the blood nerve barrier: 1.949 ± 0.589 µL/g
Not told, iv
  Permeability coefficient-surface area product (PS) of the blood nerve barrier: 0.101 ± 0.088 ml/g/sec × 10^6
